Laboratory results published in the DeepSol protein solubility set.

Test: soluble on expression in E. coli; label from the status in PepcDB or PDB records

Sequence	soluble on expression in E. coli
MASRGVNKVILVGNLGQDPEVRYMPNGGAVANITLATSESWRDKATGEMKEQTEWHRVVLFGKLAEVASEYLRKGSQVYIEGQLRTRKWTDQSGQDRYTTEVVVNVGGTMQMLGGRQGGGAPAGGNIGGGQPQGGWGQPQQPQGGNQFSGGAQSRPQQSAPAAPSNEPPMDFDDDIPF	soluble
MSLSHGKGTDMLPEIAAAVGFLSSLLRTRGCVSEQRLKVFSGALQEALTEHYKHHWFPEKPSKGSGYRCIRINHKMDPIISRVASQIGLSQPQLHQLLPSELTLWVDPYEVSYRIGEDGSICVLYEEAPLAASCGLLTCKNQVLLGRSSPSKNYVMAVSSEGHHHHHH	not soluble
